Laboratory results reported in PubChem BioAssay AID454 (Sanford-Burnham Center for Chemical Genomics, 2006).
The list shows a part of the results, in another mix than the full data. Active and inactive are the calls of the source.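 The calls were made as follows: active = compound among top-ranked inhibitors of TNF-induced VCAM-1 adhesion protein staining, with the hit upheld by image or statistical review; inactive = the rest, including hits rejected on review.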

Test: inhibitors of TNFa-induced VCAM-1 surface display, cell-based, plate reader, pooled HUVEC, TNFa stimulus (AID 454)
Settings: HUVEC TNFa-induced VCAM-1 surface immunofluorescence

Row | Structure (SMILES) | outcome
1 | Fc1ccccc1NC1CCN(Cc2ccccc2)CC1 | inactive
